## Ab-14 heavy chain CDR variants: yeast mating affinities

The target is the same throughout: PDVDLGDISGINAS, from the HR2 region of SARS-CoV-2 spike.

Ab-14 is the parent antibody, in scFv form: VH, then three GGGGS repeats, then VL. The light chain is unchanged in all variants.
VH: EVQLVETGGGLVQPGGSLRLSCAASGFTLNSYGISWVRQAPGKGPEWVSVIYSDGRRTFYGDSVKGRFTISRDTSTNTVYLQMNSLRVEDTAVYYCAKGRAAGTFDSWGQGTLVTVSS
VL: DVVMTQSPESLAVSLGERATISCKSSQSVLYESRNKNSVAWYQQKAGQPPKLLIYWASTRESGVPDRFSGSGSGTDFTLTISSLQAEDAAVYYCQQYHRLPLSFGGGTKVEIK

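Phage display of a naive human antibody library on the peptide gave the parent. Designed CDR sequences, proposed from the first random library and measured here. Their group label is 14H_En_Gibbs (En: ensemble of fine-tuned language models; Gibbs: Gibbs sampling). The assay is AlphaSeq: two haploid yeast populations carry antibody and antigen on their surface. Binding brings cells together so that they mate, and sequencing counts the barcode pairs among the diploids. A regression on co-assayed BCL2-family reference pairs converts the normalised counts of each replicate to an apparent Kd. The assay was run in six technical replicates.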

Variants are written as CDR1, CDR2 and CDR3 of the heavy chain (limits as in the source). Parent: GFTLNSYGIS, VIYSDGRRTFYGDSVK, GRAAGTFDS.
Affinities are written as log10 Kd with Kd in nM; a lower number is a better binder.
Averages over replicates are reported, and they cover detected replicates only.
Where no diploid with the target was found in that replicate, the entry reads "nd": below detection, most likely a poor binder, though not proof of it.
In the paper, a design with two or fewer of six values counts as a poor binder.

CDR-H1	CDR-H2	CDR-H3	log10 Kd, replicates	log10 Kd (nM), mean	empty controls
GFQLEDYGIS	VIYADGRRTAYAADVK	GQNNVVVGG	nd / nd / nd / nd / nd / nd	nd	1 of 18 (2.59)
GFGLDEYGIS	VIYADGSRTEYVQSVK	GDTSVIKFV	nd / nd / nd / nd / nd / nd	nd	0 of 18
FFKLEDYGIS	VIYADGKRTAYVDNVK	GEIAGTFDV	nd / 2.18 / nd / 2.05 / 1.12 / 2.55	1.98	0 of 18
GFDLKEYGIS	VIYADGSRTAYSKNFK	GEFDGMVLV	nd / nd / nd / nd / nd / nd	nd	0 of 18
GFDLNEYGIS	VIYADGQRTFYIDNVK	GQLNVVVNA	nd / nd / nd / nd / nd / nd	nd	0 of 18
GFDLNEYGIS	VIYADGHRTRYSNNVK	GGVGGIGLS	1.63 / 1.97 / 2.28 / 1.52 / 2.43 / 2.27	2.02	0 of 18
GMDLQEFGIS	VIYADGVREYYTDDFK	GQIAGTFDL	nd / nd / nd / nd / nd / nd	nd	0 of 18
GQSIEEYGIS	VIYADGKRTQYKNSVK	GTNADDITV	nd / nd / nd / nd / nd / nd	nd	1 of 18 (3.78)
GSGLDEYGIS	VIYADGMRTAYKNSVK	GSFTYVMFV	nd / nd / nd / nd / nd / nd	nd	0 of 18
GFGLDEYGIH	VIYADGMRSAYANSVK	GHQAGGIVW	nd / nd / 1.45 / nd / nd / nd	1.45	1 of 18 (2.00)
GFVLDEYGIS	VIYADGKRQVYQDKVK	GKGTGNFDT	nd / nd / nd / nd / nd / nd	nd	0 of 18
GQDINEYGIS	VIYADGMRKAYVQNVK	GENTSSVQI	nd / nd / nd / nd / nd / nd	nd	0 of 18
GFDIDEYGVS	VIYADGFRVAYAESVK	GLQQFGFTI	nd / nd / nd / nd / nd / nd	nd	0 of 18
GFSLDEVGIS	VIYADGRRAAYQDNVK	GENNVNFNE	0.14 / -0.05 / -0.34 / -0.21 / -0.27 / -0.30	-0.17	1 of 18 (3.11)
GFDINEYGIS	VIYADGQRVAYTNSFK	GTQSGNNIN	nd / nd / nd / nd / nd / nd	nd	2 of 18 (2.73)
GFDINEYGVS	VIYADGMRSYYADKVK	GSEGALFDV	nd / nd / nd / nd / nd / nd	nd	0 of 18
GQDLAEYGIS	VIYADGKRTMYANDVK	GTNVGQGGT	nd / nd / nd / nd / nd / nd	nd	1 of 18 (3.27)
GFLIDEYGIS	VIYADGQRTAYADDVK	GYVGGIGGI	nd / nd / nd / nd / nd / nd	nd	0 of 18
GDSLAEYGIS	VIYADGIRSAYIDSFK	GWVAGYFDV	nd / nd / nd / nd / nd / nd	nd	0 of 18
GNSLDDYGIS	VIYADGRRTMYAESVK	GQIAGSFFH	nd / nd / nd / 1.48 / nd / nd	1.48	0 of 18
GFDINEYGIS	VIYADGMRRAYSQSVK	GHGEVLSLD	nd / nd / nd / nd / nd / nd	nd	0 of 18
GFDLSEYGIS	VIYADGERANYVSNFK	GEQAGTFVL	nd / nd / nd / nd / nd / nd	nd	0 of 18
GFDIEEYGIS	VIYADGQRTMEASNFK	GKQAGTFNL	1.07 / -0.37 / -0.37 / 0.30 / -0.74 / -0.03	-0.03	0 of 18
GNNLDEYGIS	VIYADGQRTYYAEAVK	GSNDSGITV	nd / nd / nd / nd / nd / nd	nd	0 of 18
GDGLDEYGIS	VIYADGMRSSYSNDVK	GTNFGIKMV	nd / nd / nd / nd / nd / nd	nd	0 of 18
GEDLDEYGIS	VIYADGRRVVYQDQVK	GELAGTFAQ	nd / nd / nd / nd / nd / nd	nd	0 of 18
GFDLDKYGIS	VIYADGARKAYQNQFK	GGQAGTFVN	1.91 / 2.63 / 2.85 / nd / 2.36 / nd	2.44	2 of 18 (1.86)
GFDLGEYGIS	VIYADGSRSAYAKNVK	GGSVYKDDV	nd / nd / nd / nd / nd / 2.34	2.34	2 of 18 (1.63)
GQSLNEYGIS	VIYADGHRKMYANDVK	GKQGAIFED	nd / nd / nd / nd / nd / nd	nd	0 of 18
GFDIEEYGIS	VIYADGVRTMYTPNVK	GNILGLAMT	1.13 / -0.04 / 0.54 / 0.52 / -0.21 / 0.49	0.41	1 of 18 (2.34)
GFDLNEYGIS	VIYADGMRRAAANTVK	GMAYGFTLD	nd / nd / nd / nd / nd / nd	nd	0 of 18
GQDLEEFGIS	VIYADGMRAAYADNVK	GVKVGNVTI	nd / nd / nd / nd / nd / nd	nd	0 of 18
GNDLDEYGIS	VIYADGSRTSYIDKVK	GLVGGQLIV	nd / nd / nd / nd / nd / 2.12	2.12	0 of 18

Three control strains display no target. For all heavy chain designs, 1% of the pairings with them gave a signal, with a median of 2.08 and one signal in twenty below 0.84, so weak values seen in few replicates may be background. The control count says in how many pairings with the empty strains this scFv gave a signal, with their mean in brackets.
Values of this round are not directly comparable with the first-round values of the same sequences.

From the AlphaSeq antibody data of Li et al. 2023 (doi:10.1038/s41467-023-39022-2), copy in the FLAb collection.